# From PubChem
# GIV Gai3 FP: inhibitors of GIV GBA-motif binding to rat Galpha-i3. P08753. Galpha-i3/FITC-GIV peptide fluorescence polarization, 90 min; hits give low values; scaled: aluminum fluoride 0%, vehicle 100%. percent of control (FP), % (no concentration beside the values). 210,000 compounds, 0.42% hits;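 active = replicate mean at 85% of control or lower, very high polarization wells dropped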;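 also: wells of about 15 µL received 100 nL stock; the first replicate is given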
# GIV Gai FP conf: confirmation of inhibitors of GIV binding to rat Galpha-i3; FITC-GIV peptide binding to Galphai3, fluorescence polarization; stronger effect = lower value; shares compounds with GIV Gai3 FP; fluorescence polarization, mP at 100 µM; hit rate 38% among 580; AID 1259350;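 active = inhibition score of 15 or more, meaning 100 minus mean polarization as percent of control over three replicates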
# GIV-Gai AS conf: GIV-Galpha-i3 inhibition, AlphaScreen confirmation | AlphaScreen counts at 100 µM | AlphaScreen Galphai3-GIV binding, purified proteins, 90 min; stronger effect = lower value | hit rate 39% among 580 | shares compounds with GIV Gai3 FP;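 active = inhibition score at or above a set limit, where the score is 100 minus the three-replicate mean percent of control signal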
# Numbers without * were called inactive. The sample as a whole holds a higher share of hits than the screen did.
SMILES,GIV Gai3 FP,others
CC(O)CNc1c[nH]c(=O)[nH]c1=O (stereo unspecified),100,
O=c1[nH]cc(NCCO)c(=O)[nH]1,66*,GIV Gai FP conf=44*;GIV-Gai AS conf=47941
O=c1[nH]cc(NCc2ccccc2)c(=O)[nH]1,101,
CCN1CCN(C(C)C(=O)NC(c2ccccc2)c2ccccc2)CC1 (stereo unspecified),105,
CCC(CCC(C)C1CCC2C3CC=C4CC(OC(=O)c5ccccc5)CCC4(C)C3CCC12C)C(C)C (stereo unspecified),110,
O=C(NCCn1c(-c2ccccc2)nc2cccnc21)c1ccc(Cl)cc1,110,
Cc1nc2cc(C(=O)NCCN(C)C)ccc2n1-c1ccccc1,106,
CN(C)CCNC(=O)c1ccc(-n2c(-c3ccccc3)nc3cccnc32)cc1,83*,GIV Gai FP conf=60;GIV-Gai AS conf=33901
Cc1cc(C(=O)Nc2nc(C34CC5CC(CC(C5)C3)C4)cs2)no1,102,
CC(=O)Nc1ccc(C=Nc2ccc(C(C)C)cc2)cc1,106,
CC(=O)N/N=C/c1ccccc1,101,
CC(=O)N/N=C/c1cc(C(C)C)cc(/C=N/NC(C)=O)c1O,81*,GIV Gai FP conf=68;GIV-Gai AS conf=27039
COc1ccc(-c2noc(-c3ccccc3OCC(=O)Nc3nnc(C(C)C)s3)n2)cc1,98,
O=c1[nH]c2c(s1)C(c1ccccc1)C1C3CCC(C3)C1S2 (stereo unspecified),107,
O=C1NC(=O)C2C1Sc1[nH]c(=O)sc1C2c1ccco1 (stereo unspecified),78*,GIV Gai FP conf=65;GIV-Gai AS conf=3023*

# Quoted at random: 4 records from the list.
SMILES,GIV Gai3 FP,others
O=c1[nH]cc(NCc2ccccc2)c(=O)[nH]1,101,
CC(O)CNc1c[nH]c(=O)[nH]c1=O (stereo unspecified),100,
CN(C)CCNC(=O)c1ccc(-n2c(-c3ccccc3)nc3cccnc32)cc1,83*,GIV Gai FP conf=60;GIV-Gai AS conf=33901
Cc1nc2cc(C(=O)NCCN(C)C)ccc2n1-c1ccccc1,106,

# Later entries
SMILES,GIV Gai3 FP,others
COc1ccc(C2c3sc(=O)[nH]c3SC3C(=O)N(c4ccccc4)C(=O)C32)cc1 (stereo unspecified),112,
Cc1ccc([N+](=O)[O-])c2cc3c(nc12)-c1ccccc1C3=O,120,
Cn1c(=O)n(CC(=O)N2CCCC2)c(=O)c2cc(S(=O)(=O)N3CCc4ccccc43)ccc21,99,
CCn1c(C)c(CN2CCC(C(=O)N3CCCC3)CC2)c2ccccc21,102,
CCn1c(SC)nnc1-c1nn(C)c2c1CN(C(=O)C1CCC1)CC2,103,
CCn1c2c(c3ccccc31)CN(C(=O)C1CCC1)CC2,51*,GIV Gai FP conf=20*;GIV-Gai AS conf=14471*
COc1ccc(C2=Nc3ccccc3N(Cc3cc(C)ccc3C)C(=O)C2)cc1,101,
Cc1ccc(N2CCn3c2nc2c3c(=O)n(CC(=O)O)c(=O)n2C)cc1,100,
Cn1c(=O)n(CC(=O)O)c(=O)c2c1nc1n2CCCN1c1ccc(F)cc1,93,
Cn1c(=O)n(CC(=O)O)c(=O)c2c1nc1n2CCN1c1ccc(F)cc1,85*,GIV Gai FP conf=64;GIV-Gai AS conf=39054
Cc1nnc(SCC(=O)Nc2ccc3nc(SCC(=O)NC4CCCCC4)sc3c2)s1,107,
CC(=O)N1CCc2cc(N3CC(C(=O)NCc4cccs4)CC3=O)ccc21 (stereo unspecified),109,
C1CCC2(CC1)OC1COC3OC4(CCCCC4)OC3C1O2 (stereo unspecified),117,
O=C(NC1CCCCC1)N(Cc1ccccc1)Cc1cc2cc3c(cc2[nH]c1=O)OCCO3,109,
CCCC1=NN(c2ccccc2)C(=O)/C1=C/c1ccc2c(c1)OCO2,101,
CC1=NN(c2ccccc2)C(=O)C1C(c1ccccc1)C(C#N)C#N (stereo unspecified),106,
CC1=NN(c2ccccc2)C(=O)C1C(c1ccc2c(c1)OCO2)C1C(=O)N(c2ccccc2)N=C1C (stereo unspecified),72*,GIV Gai FP conf=63;GIV-Gai AS conf=17537*
CCCC1Cc2[nH]c(=O)c(C(=O)O)cc2CO1 (stereo unspecified),104,
Cc1ccc(C2C=C(c3ccccc3)Nc3nc(NS(=O)(=O)c4ccc(C)cc4)nn32)cc1 (stereo unspecified),100,
CS(=O)(=O)Nc1nc2n(n1)C(c1ccccc1)C=C(c1ccccc1)N2 (stereo unspecified),53*,GIV Gai FP conf=44*;GIV-Gai AS conf=28094
O=S(=O)(Nc1nc2n(n1)C(c1ccccc1)C=C(c1ccccc1)N2)c1ccc(Cl)cc1 (stereo unspecified),96,
C/C(=C\c1nsc(Nc2ccccc2)n1)NCc1ccc(C)cc1,113,
Cc1nc(S(=O)(=O)N(C)CC2(C)CCOCC2)cn1C,98,
COc1ccccc1CNc1nc2ccccc2nc1S(=O)(=O)c1ccc(C)cc1,114,
Cc1ccc(S(=O)(=O)c2nc(S(C)(=O)=O)sc2NCc2ccccc2)cc1,99,
Cc1ccc(S(=O)(=O)c2nc3ccccc3nc2NCCc2ccccc2)cc1,78*,GIV Gai FP conf=65;GIV-Gai AS conf=42344
CCc1ccc(Nc2nc3cc(OC)ccc3cc2C#N)cc1,101,
O=C(Nc1cccc(-c2nc3ccccc3o2)c1)C(F)(F)F,70*,GIV Gai FP conf=75;GIV-Gai AS conf=32747
O=C(/C=C/c1ccco1)Nc1cccc(-c2nc3ccccc3o2)c1,115,
